Target: Hoxd13 (endogenous, wild type mouse E12.5 limb bud cells) (mouse) (UniProt P70217)
Experiment: co-immunofluorescence STORM in E12.5 limb bud cells, overlap of Brd4 with Hoxd13 puncta

The chains behind the UniProt entries cited, without tags or fusion partners. Where a name states a change or a piece, a line headed by the entry shows the natural chain unless it says otherwise.
UniProt P70217: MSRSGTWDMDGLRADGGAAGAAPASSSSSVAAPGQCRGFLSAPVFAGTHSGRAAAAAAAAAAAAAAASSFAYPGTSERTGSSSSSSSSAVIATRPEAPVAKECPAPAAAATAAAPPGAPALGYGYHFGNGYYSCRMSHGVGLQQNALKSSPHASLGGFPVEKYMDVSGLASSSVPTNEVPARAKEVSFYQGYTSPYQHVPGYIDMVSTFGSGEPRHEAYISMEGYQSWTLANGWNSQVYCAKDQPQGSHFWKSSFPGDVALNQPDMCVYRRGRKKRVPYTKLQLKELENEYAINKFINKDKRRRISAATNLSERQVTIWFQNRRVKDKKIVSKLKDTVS

fold difference in Manders co-efficient (wild type against spdh +7A Hoxd13): 1.5 fold
Substance: Brd4 (endogenous, mouse limb bud cells) (from UniProt Q9ESU6 1-1400)

Reference: US20230168255A1, “UNBLENDING OF TRANSCRIPTIONAL CONDENSATES IN HUMAN REPEAT EXPANSION DISEASE” (Max-Planck-Gesellschaft zur Förderung der Wissenschaften …, priority 2020, published 2023)
